Results: PubChem BioAssay AID720511 (Broad Institute, 2013)
This is a selection; strong and weak results do not stand in their true shares. Calls of active or inactive are those of the source.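 How the source made its calls: active means mean added fluorescence quench of at least 8% versus neutral control, with both replicates also reaching 8%; inconclusive means only one of the mean or replicate conditions met; inactive means mean below 8% and not both replicates reaching 8%.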

Assay: F508del CFTR correction, initial screen, CFBE line, single point (AID 720511);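 further: cells transiently co-express mutant CFTR-F508del with the halide-sensitive YFP; corrector assay measuring rescue of mutant channel to the surface after 24 h compound exposure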
Details: CFBE cells, YFP halide quenching, at 7.58 µM, stronger effect = higher value, % fluorescence drop versus neutral controls, stimulated with forskolin plus potentiator P3

| SMILES | activity (quench increase) |
| --- | --- |
| NC(=O)Nc1ccc([As](=O)(O)O)cc1 | inactive: 0.426% |
| [N-]=[N+]=NC1CCCCC1NC(=O)c1cc([N+](=O)[O-])cc([N+](=O)[O-])c1 (centres undefined) | inactive: -0.955% |
| Cc1ccc(OP(=O)(Nc2ccc([N+](=O)[O-])cn2)Oc2ccc(C)cc2)cc1 | inactive: -1.83% |
| Cc1ccc2nc3c(c(C)c2c1)CC(C(Cl)Cl)S3 (centres undefined) | inactive: 0.706% |
| O=[As](O)(c1ccc(O)cc1)c1ccccc1O | inactive: -2.77% |
| C[As](=O)(O)c1cccc(C(=O)O)c1 | inactive: 3.41% |
| COc1cc(C(=O)NCC2(N3CCOCC3)CCCCC2)ccc1OCC(C)C | inactive: 3.88% |
| CC(C)NC(=O)NP(=O)(Oc1ccccc1)Oc1ccccc1 | inactive: -4.31% |
| O=C(OC1CN2CCC1CC2)c1cccc2[nH]cnc12 (centres undefined) | inactive: 0.145% |
| COC(=O)C1(C)COP(=O)(N2CCCCCC2)OC1 (centres undefined) | inactive: 2.46% |
| CC(C)c1ccc(OP(=O)(Nc2ccccn2)Oc2ccccc2F)cc1 (centres undefined) | inactive: 0.475% |
| COc1ccc(CN2/C(=N\P(=O)(Oc3ccccc3)Oc3ccccc3)Cc3ccccc3C2C2CC2)cc1 (centres undefined) | inactive: -0.77% |
| O=P1(N(CCCl)CCCl)Nc2ccccc2N1 | inactive: 0.642% |
| O=P1(N(CCCl)CCCl)OCCCN1CCCl (centres undefined) | inactive: -0.963% |
| COc1ccc2nc(NP(=O)(c3ccccc3)c3ccccc3)sc2c1 | inactive: -2.19% |
| COc1cc(I)ccc1[As](=O)(O)O | inactive: -0.629% |
| Cc1c2c(nc3ccccc13)SC(C(Cl)Cl)C2 (centres undefined) | inactive: -4.38% |

| SMILES | activity (quench increase) |
| --- | --- |
| Cc1cc(=O)[nH]c(N[N+](=O)[O-])n1 | inactive: 1.36% |
| O=[N+]([O-])c1cc(Oc2ccc([N+](=O)[O-])cc2C(F)(F)F)cc([N+](=O)[O-])c1 | inactive: 3.64% |
| COc1ccc(N/C(=N/P(=O)(N2CCOCC2)N2CCOCC2)N2CCOCC2)cc1 | inactive: -3.92% |
| O=C(O)C(=O)c1ccc(N(CCCl)CCCl)cc1 | inactive: 0.895% |
| O=C(Nc1ccncc1[N+](=O)[O-])c1ccc([N+](=O)[O-])cc1[N+](=O)[O-] | inactive: -1.92% |
| COP1(=S)c2c(C)nn(CCC#N)c2N=C(c2ccc(F)cc2)N1C (centres undefined) | inactive: 0.616% |
| COC(=O)C1(C)COP(=O)(N2CCCC2)OC1 (centres undefined) | inactive: 1.19% |
| O=C(OC1CN2CCC1CC2)c1cccc([N+](=O)[O-])c1 (centres undefined) | inactive: -0.205% |
| CCOC(=O)c1ccc(NC(=O)C(C)(CCl)SC)cc1 (centres undefined) | inactive: 3.66% |
| COP(=O)(OC)N1CC1c1ccccc1 (centres undefined) | inactive: -2.36% |
| CCCCOc1ccc(C(=O)NCC2(N3CCCCC3)CCCCC2)cc1OC | inactive: -1.95% |
| CCOC(=O)Nc1ccc([As](=O)(O)O)c(O)c1 | inactive: -2.65% |
| O=C(O)C(O)c1ccc(N(CCCl)CCCl)cc1 (centres undefined) | inactive: 4.72% |
| O=P(Nc1ccccn1)(c1cccc2ccccc12)c1cccc2ccccc12 | inactive: -3.08% |
| Cc1cc(SC(NC=O)C(Cl)(Cl)Cl)ncn1 (centres undefined) | inactive: -1.69% |
| O=[N+]([O-])c1ccc(Nc2ccc(Oc3ccc([N+](=O)[O-])cc3[N+](=O)[O-])cc2)c([N+](=O)[O-])c1 | inactive: -1.42% |
| CCOC(=O)Nc1cccc([As](=O)(O)O)c1 | inactive: 2.6% |
